The source of these data is US10537571B2, “Pyrimidine FGFR4 inhibitors” (priority 2013, dated 2020).

Common to all, as to design: species or system nude mice
For assay [1], the system named is HUH7 tumor xenografts. Description: In vivo efficacy in HUH7 hepatocellular carcinoma xenograft.
The test system of assay [2] is HEP3B tumor xenografts. Kind of assay: In vivo efficacy in HEP3B hepatocellular carcinoma xenograft.
The subject of assay [3] is JHH7 tumor xenografts. Kind of assay: In vivo efficacy in JHH7 hepatocellular carcinoma xenograft.

`C=CC(=O)Nc1cc(N2CCN(CC)CC2)ccc1Nc1cc(N(C)C(=O)Nc2c(Cl)c(OC)cc(OC)c2Cl)ncn1` [Compound 108, N-(2-(6-(3-(2,6-Dichloro-3,5-dimethoxyphenyl)-1-methylureido)pyrimidin-4-ylamino)-5-(4-ethylpiperazin-1-yl)-phenyl)acrylamide]: the “sensitivity of xenograft model to compound” value in assay [1] is “intermediate sensitivity”; in assay [2] it was “most sensitive”; in assay [3], “least sensitive”.
